Measured affinities in a library of Ab-14 heavy chain variants

Reference: Li et al. 2023, doi:10.1038/s41467-023-39022-2. File: FLAb, binding data.

Target: peptide PDVDLGDISGINAS, taken from heptad repeat 2 (HR2) of SARS-CoV-2 spike.

Ab-14 is the parent antibody, in scFv form: VH, then the linker GGGGSGGGGSGGGGS, then VL. The light chain is unchanged in all variants.
VH: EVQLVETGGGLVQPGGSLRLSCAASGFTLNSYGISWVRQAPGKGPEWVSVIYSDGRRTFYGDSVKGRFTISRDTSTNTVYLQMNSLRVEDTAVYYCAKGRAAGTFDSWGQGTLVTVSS
VL: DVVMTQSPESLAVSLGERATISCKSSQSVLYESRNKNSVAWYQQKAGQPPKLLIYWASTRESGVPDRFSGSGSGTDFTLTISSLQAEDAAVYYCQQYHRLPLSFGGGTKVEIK

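Phage display of a naive human antibody library on the peptide gave the parent. This is the validation round: designs drawn from the data on random variants, tested in the same kind of assay. Group labels follow the data file (En: ensemble of fine-tuned language models; HC: hill climbing; Gen: genetic algorithm; Gibbs: Gibbs sampling; a sequence that several methods proposed may carry one label only). AlphaSeq pools MATa yeast showing the antibodies with MATalpha yeast showing the peptide. The frequency of each diploid, read from paired DNA barcodes, reflects how well the two displayed proteins bind. The ratio of observed to expected reads was calibrated, replicate by replicate, on BCL2-family standards whose Kd was known from biolayer interferometry. There are six technical replicates.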

Each variant is given by its three heavy chain CDRs, as the data file delimits them; those of the parent are GFTLNSYGIS, VIYSDGRRTFYGDSVK, GRAAGTFDS. Variants here have more than six changes. The read-out is the apparent dissociation constant on a log10 scale (nM): the lower, the stronger. The mean shown is taken over the replicates in which the pair was detected. "nd" means that the variant was in the library but no mating with the target was seen in any replicate; the authors take this as a sign of poor binding, and no number exists. The parent sequence was in this pool as ten entries: three were never detected, three once, and four in most replicates, with averages from 0.34 to 2.37. The range of this assay differs from that of the first round, and the authors advise against merging the two. The authors averaged sequences with at least three values out of six and counted those with two or fewer as poor binders. As a blank, each scFv also met three strains without target: over all heavy chain designs, 1% of these pairings were detected, typically at 2.08 and seldom below 0.84. Also given: how often the same scFv was detected with the empty control strains.

GFDIEDYGIS / VIYADGVRAMYKENFK / GQIAGTFLI [En_Gibbs]: 1.39 (1 of 6 replicates; controls 0 of 18).
GFDLDEYGIS / VIYADGRRTFYADSVK / GNVAGTFDS [En_HC]: -0.27 (6 of 6 replicates; controls 0 of 18).
GQLLDDYGIS / VIYADGLRKAYVDEVK / GNVAGTFDM [En_Gibbs]: -0.95 (4 of 6 replicates; controls 0 of 18).
GFDLNEYGIS / VIYADGMRTQYADSVK / GNAAGTFDS [En_HC]: 0.01 (5 of 6 replicates; controls 0 of 18).
GFDINEYGVS / VIYADGMRTAYTDSVK / GEGAWIALI [En_Gibbs]: nd (0 of 6 replicates; controls 0 of 18).
GFDLNEYGIS / VIYADGVRTAYADSVK / GEHAGTFDV [En_Gen]: -0.25 (6 of 6 replicates; controls 1 of 18).
GFDLGEYGVS / VIYADGKRTFYADHVK / GVNLGFFDT [En_Gibbs]: nd (0 of 6 replicates; controls 2 of 18).
GFELDEYGIS / VIYADGERTGYVDNVK / GEAGIDFHV [En_Gibbs]: 1.54 (6 of 6 replicates; controls 1 of 18).
GFDLNEYGIS / VIYADGLRTAYADSVK / GNNAGTFDI [En_Gen]: -0.37 (6 of 6 replicates; controls 0 of 18).
GFDLNEYGIS / VIYADGQRTFYTDSVK / GEFAGTFDQ [En_HC]: 0.32 (6 of 6 replicates; controls 0 of 18).
GFDLNEYGIS / VIYADGIRSRYANKVK / GNGAGTLDI [En_Gibbs]: 4.20 (1 of 6 replicates; controls 1 of 18).
GFDLNEYGIS / VIYADGMRTMYADSVK / GNNAGTFDV [En_Gen]: 0.10 (6 of 6 replicates; controls 0 of 18).
GFDLNEYGIS / VIYADGMRTAYADDVK / GEVAGTFDL [En_Gen]: 0.18 (6 of 6 replicates; controls 0 of 18).
GFDLDEYGIS / VIYADGMRTAYADSVK / GNEAGTFDV [En_Gen]: -0.20 (6 of 6 replicates; controls 1 of 18).
GFDIDEYGIS / VIYADGRRTAYADSVK / GTNAGTFDS [En_HC]: -0.02 (6 of 6 replicates; controls 0 of 18).
GFDLDEYGIS / VIYADGMRTYYADSVK / GQNAGTFDV [En_Gen]: 1.48 (6 of 6 replicates; controls 0 of 18).
GFDLNEYGIS / VIYADGRRTSYADSVK / GEAAGTFDV [En_HC]: -0.23 (6 of 6 replicates; controls 0 of 18).
GFDLMEYGVS / VIYADGQRTYYTNKVK / GEISAGFLI [En_Gibbs]: nd (0 of 6 replicates; controls 0 of 18).
GFDLNEFGVS / VIYADGSRASYADKVK / GLNFGQLIV [En_Gibbs]: nd (0 of 6 replicates; controls 1 of 18).
GFNLAEYGIS / VIYADGSRVAYADSVK / GLNGKIGDQ [En_Gibbs]: nd (0 of 6 replicates; controls 0 of 18).
GFDINEYGIS / VIYADGQREYYAESVK / GFNQTINLV [En_Gibbs]: 2.92 (1 of 6 replicates; controls 0 of 18).
GFDLNEYGIS / VIYADGKRTAYADDVK / GEVAGTFDQ [En_Gen]: -0.72 (6 of 6 replicates; controls 0 of 18).
GFDLNEYGIS / VIYADGRRTAYADNVK / GEVAGTFDT [En_Gen]: -0.67 (6 of 6 replicates; controls 0 of 18).
GFNLDEYGIS / VIYADGKRTAYADSVK / GNQAGTFDV [En_Gen]: -0.32 (6 of 6 replicates; controls 1 of 18).
GFDLDEYGIS / VIYADGKRTAYADSVK / GTNAGTFDL [En_Gen]: 0.01 (6 of 6 replicates; controls 0 of 18).
GFNVNEYGIS / VIYADGLRTQYIDSVK / GNAFIFGLD [En_Gibbs]: nd (0 of 6 replicates; controls 0 of 18).
GFDLDEYGIS / VIYADGMRTAYADSVK / GTNAGTFDI [En_Gen]: -0.41 (6 of 6 replicates; controls 0 of 18).
GFDLNEYGIS / VIYADGVRKAYADSVK / GNTAGTFDI [En_Gen]: -0.53 (6 of 6 replicates; controls 0 of 18).
GFDLNEYGIS / VIYADGVRTFYSDSVK / GTNGGTFDM [En_HC]: 0.32 (6 of 6 replicates; controls 0 of 18).
GFDLNEYGIS / VIYADGMRTAYVDSVK / GENAGTFDV [En_Gen]: 1.18 (5 of 6 replicates; controls 0 of 18).
GFDLNEYGIS / VIYADGVRTAYADTVK / GQNAGTFDV [En_Gen]: -0.59 (6 of 6 replicates; controls 0 of 18).
GFDLNEYGIS / VIYADGMRTFYADSVK / GQNAGTFDM [En_Gen]: -0.44 (6 of 6 replicates; controls 1 of 18).
GFDLDEYGIS / VIYADGRRTFYADSVK / GELAGTFDS [En_HC]: -0.64 (6 of 6 replicates; controls 0 of 18).
GFDLNEYGIS / VIYADGVRTAYADSVK / GGQAGTFDV [En_Gen]: 0.41 (6 of 6 replicates; controls 0 of 18).
GFDLNEYGIS / VIYADGRRTAYADSVK / GEVAGTFDA [En_Gen]: -0.69 (6 of 6 replicates; controls 0 of 18).
GFDLNEYGIS / VIYADGKRTSYADSVK / GQNAGTFDV [En_Gen]: -1.19 (5 of 6 replicates; controls 0 of 18).
GFDIQDYGIS / VIYADGSRTAYVNNAK / GLWGATLDV [En_Gibbs]: nd (0 of 6 replicates; controls 0 of 18).
GFDVMEYGIS / VIYADGMRQAYANKVK / GGITSSGLI [En_Gibbs]: nd (0 of 6 replicates; controls 0 of 18).
GFDLNEYGIS / VIYADGRRTFYADSVK / GGNAGTFDV [En_HC]: -0.21 (6 of 6 replicates; controls 0 of 18).

Again, the first 3 entries without any signal:

Variant GFDINEYGVS / VIYADGMRTAYTDSVK / GEGAWIALI [En_Gibbs] gave nd (0 of 6 replicates; controls 0 of 18).
Variant GFDLGEYGVS / VIYADGKRTFYADHVK / GVNLGFFDT [En_Gibbs] gave nd (0 of 6 replicates; controls 2 of 18).
Variant GFDLMEYGVS / VIYADGQRTYYTNKVK / GEISAGFLI [En_Gibbs] gave nd (0 of 6 replicates; controls 0 of 18).